# Laboratory results published in patent publication US20220064195A1, “SYNTHETIC I2 IMIDAZOLINE RECEPTOR LIGANDS FOR PREVENTION OR TREATMENT OF HUMAN BRAIN DISORDERS” (Universitat de Barcelona, priority 2018, published 2022).
# What was measured:
# I2-IR = experiment: Competition binding against the selective I2-IR radioligand [3H]-2-BFI in membranes from post-mortem human frontal cortex
# α2-AR = experiment: Competition binding against the selective α2-AR radioligand [3H]RX821002 in membranes from post-mortem human frontal cortex
structure (smiles),measurement,setting,value
CCOP(=O)(OCC)[C@]1(c2ccccc2)N=C[C@H]2C(=O)N(C)C(=O)[C@H]21 (relative stereo),Selectivity I2/α2,I2-IR; antilogarithm of the difference between pKi for I2-IR and pKi for α2-AR,110
same,[^3H]-2-BFI I2 binding affinity (pKi),"I2-IR; membranes from post-mortem human frontal cortex, radioligand [3H]-2-BFI",7.97 ± 0.55
same,Permeability (Pe) Experimental value ± SD (n = 3),"PAMPA-BBB, PBS:EtOH (70:30), three experiments in triplicate",0.75 ± 0.13 10−6 cm s^−1
same,CNS Prediction,predictive penetration in the CNS from PAMPA-BBB Pe,"CNS− (compounds of low BBB permeation (CNS−): Pe (10^−6 cm s^−1)<2,083)"
same,[^3H]-RX821002 α2 binding affinity (pKi),α2-AR,5.93 ± 0.41
